High-throughput results (PubChem BioAssay)
RAD54 inh – blocks human RAD54 Holliday junction branch migration; Q92698; FAM/BHQ fluorescence; inhibition, % at 10.4 µM; 360,000 tested, 0.14% active; AID 602329;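 active = mean normalized replicate activity at least 40 and at least half of replicates scoring 40 or more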;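 note: inhibitors cause a drop in the FAM fluorescence signal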
MLL AF4-AF9 inh – inhibitors of human MLL-AF4/AF9 interaction | AlphaScreen, biotin-AF4 peptide binding to FLAG-AF9 | P42568 | 350,000 tested, 0.47% active | inhibition, % at 10 µM;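 active = every replicate reaching a set inhibition limit, whatever the replicate mean, cut at about 25% in these data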
SIRT5 inh – inhibitors of human sirtuin-5 desuccinylase; Purified SirT5, succinyl-peptide AMC, trypsin-coupled fluorescence; AID 652115; 330,000 tested, 1.1% active; Q9NXA8; inhibition, % at 15 µM; in the data active = inhibition above about 15%
UUG fidelity – modulators of start codon recognition fidelity in yeast; AID 602363; activity score, % at 18.7 µM; S. cerevisiae UUG-firefly luciferase reporter, luminescence/redox ratio; 0.13% of 350,000 active;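 active = replicate mean at a twofold rise or more, about +100% in these data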;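 note: firefly luciferase made from a UUG start codon reports start codon fidelity; reporter light over untreated wells divided by growth signal over untreated wells; some hits fall short of that in this replicate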
RAD52 inh – inhibitors of human RAD52 DNA annealing. P43351. recombinant RAD52 DNA annealing, FRET fluorescence. inhibition, % at 18.7 µM. 360,000 tested, 0.46% active. AID 651710;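 active = every replicate showing at least 50% inhibition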
E-sel inducer – E-selectin induction on HUVECs; P16581; HUVEC E-selectin immunofluorescence imaging; normalized: neutral wells 0, TNF-alpha wells 100; activation, % at 7.58 µM; 260,000 tested, 0.37% active; AID 686992;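 active = mean E-selectin-positive cell signal at least 10% of the positive control, reached in at least 60% of replicates, without over 20% cell loss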
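Read-out basis: % PE-positive cells; Test system: HUVEC primary endothelial cells; Technique: immunofluorescence imaging; Dosing: single-point compound dose.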
Numbers stand for hits; ! = repeats disagree. Hits are enriched below; roughly 1.8% of the tested compounds scored in any of these assays.

`COc1cccc(-c2ccc3c(c2)O[C@H](CN(C)C(=O)c2ccccc2F)[C@H](C)CN([C@H](C)CO)S3(=O)=O)c1` gave RAD54 inh inactive, MLL AF4-AF9 inh inactive, SIRT5 inh 37!, UUG fidelity inactive, RAD52 inh inactive and E-sel inducer inactive.
`C/C=C/c1ccc2c(c1)O[C@@H](CN(C)C(=O)Nc1cc(F)ccc1F)[C@H](C)CN([C@H](C)CO)S2(=O)=O` gave RAD54 inh inactive, MLL AF4-AF9 inh inactive, SIRT5 inh inactive, UUG fidelity inactive, RAD52 inh inactive and E-sel inducer inactive.
`Cc1ccccc1NC(=O)Nc1ccc2c(c1)C(=O)N(C)[C@@H]1CC[C@H](CC(=O)O)O[C@@H]1CO2` gave RAD54 inh inactive, UUG fidelity inactive and E-sel inducer inactive.
For C[C@H](CO)N1C[C@H](C)[C@@H](CN(C)C(=O)Nc2ccc(C(F)(F)F)cc2)Oc2ccc(NC(=O)CCCCCC(=O)Nc3ccccc3N)cc2C1=O the results were E-sel inducer inactive.
For CC(C)NC(=O)N(C)C[C@H]1OCCCC[C@H](C)Oc2ccc(NS(=O)(=O)c3cccs3)cc2C(=O)N([C@@H](C)CO)C[C@@H]1C the results were RAD54 inh inactive, MLL AF4-AF9 inh inactive, SIRT5 inh inactive, UUG fidelity inactive and RAD52 inh inactive.
C[C@H](CO)N1C[C@H](C)[C@@H](CN(C)C(=O)Nc2cc(F)ccc2F)Oc2cc(/C=C/c3ccccc3)ccc2S1(=O)=O was read as RAD54 inh inactive, MLL AF4-AF9 inh inactive, SIRT5 inh 21, UUG fidelity inactive, RAD52 inh inactive and E-sel inducer inactive.
For CCCN(C)C[C@@H]1Oc2ncc(C#Cc3ccccc3OC)cc2C(=O)N([C@H](C)CO)C[C@@H]1C the results were RAD54 inh inactive, MLL AF4-AF9 inh inactive, SIRT5 inh inactive, UUG fidelity inactive and RAD52 inh 57.
`CCCN(C)C[C@@H]1Oc2ncc(C#Cc3ccc(OC)cc3)cc2C(=O)N([C@H](C)CO)C[C@@H]1C` gave RAD54 inh inactive, MLL AF4-AF9 inh inactive, SIRT5 inh inactive, UUG fidelity inactive, RAD52 inh inactive and E-sel inducer inactive.
`CCCN(C)C[C@@H]1Oc2ncc(C#Cc3cccc(OC)c3)cc2C(=O)N([C@H](C)CO)C[C@@H]1C` gave MLL AF4-AF9 inh inactive, SIRT5 inh inactive, RAD52 inh 53 and E-sel inducer inactive.
`CO[C@@H]1CN(C)C(=O)c2cc(NC(=O)NC(C)C)ccc2OC[C@@H](C)N(Cc2ccc(-c3ccccn3)cc2)C[C@@H]1C` gave RAD54 inh inactive, MLL AF4-AF9 inh inactive, SIRT5 inh inactive, UUG fidelity inactive, RAD52 inh inactive and E-sel inducer inactive.
Screening O=c1c2ccccc2oc2ccc(C#CC3(O)CCCCC3)cc12 returned RAD54 inh inactive, MLL AF4-AF9 inh inactive, UUG fidelity inactive, RAD52 inh inactive and E-sel inducer inactive.
`COc1cccc2oc3ccc(C#CC4(N)CCCCC4)cc3c(=O)c12` gave RAD54 inh 51, MLL AF4-AF9 inh inactive, UUG fidelity inactive, RAD52 inh inactive and E-sel inducer inactive.
Screening C[C@@H]1CN([C@@H](C)CO)C(=O)c2cccc(NC(=O)C3CCCCC3)c2O[C@@H]1CN(C)C returned RAD54 inh inactive, MLL AF4-AF9 inh inactive, UUG fidelity inactive, RAD52 inh inactive and E-sel inducer inactive.
COCC(=O)N(C)C[C@H]1Oc2ncc(Br)cc2C(=O)N([C@@H](C)CO)C[C@H]1C was read as RAD54 inh inactive, MLL AF4-AF9 inh inactive, SIRT5 inh 17!, UUG fidelity inactive, RAD52 inh inactive and E-sel inducer inactive.
C[C@@H]1CN([C@@H](C)CO)C(=O)c2cc(Br)cnc2O[C@H]1CN(C)C(=O)C1CCCCC1 was read as RAD54 inh inactive, MLL AF4-AF9 inh inactive, SIRT5 inh 18!, UUG fidelity inactive, RAD52 inh inactive and E-sel inducer inactive.
Screening COC(=O)C1CCN(Cc2ccc(OCCCN3CCN(c4ccc([N+](=O)[O-])cc4)CC3)cc2)CC1 returned MLL AF4-AF9 inh inactive, SIRT5 inh 16, RAD52 inh inactive and E-sel inducer inactive.
For CC1CCN(CCCCOc2ccc([N+](=O)[O-])cc2)CC1 the results were MLL AF4-AF9 inh inactive, SIRT5 inh inactive, RAD52 inh inactive and E-sel inducer inactive.
Screening Cc1cc(C)n(/C(=C\N(C)C)C(=O)c2cccc([N+](=O)[O-])c2)n1 returned RAD54 inh inactive, MLL AF4-AF9 inh 51, SIRT5 inh inactive, UUG fidelity inactive, RAD52 inh inactive and E-sel inducer inactive.
For CCCn1nc(Oc2nc(N(C)C)nc(N(C)C)n2)ccc1=O the results were MLL AF4-AF9 inh inactive, SIRT5 inh 19 and RAD52 inh inactive.
`CCCn1nc(Oc2nc(NCC)nc(NCC)n2)ccc1=O` gave RAD54 inh inactive and UUG fidelity inactive.
O=C(NC[C@@H]1CC[C@@H]2[C@@H](CN2S(=O)(=O)c2ccccc2[N+](=O)[O-])O1)Nc1ccccc1 was read as MLL AF4-AF9 inh inactive, SIRT5 inh inactive and RAD52 inh inactive.
For CCOC(=O)C1(CC2CC2)CCN(Cc2cn[nH]c2-c2cccc(F)c2)CC1 the results were MLL AF4-AF9 inh inactive, SIRT5 inh 17 and RAD52 inh inactive.
`CN(C)CCCNC(=O)C[C@H]1C=C[C@H](NC(=O)Cc2cccnc2)[C@@H](CO)O1` gave RAD54 inh inactive, MLL AF4-AF9 inh inactive, SIRT5 inh inactive, UUG fidelity inactive, RAD52 inh inactive and E-sel inducer inactive.
For Cc1c(NC(=O)c2ccc(NC(=O)C3CC3)cc2)cccc1C(=O)O the results were RAD54 inh inactive, MLL AF4-AF9 inh inactive, SIRT5 inh 20, UUG fidelity inactive, RAD52 inh inactive and E-sel inducer inactive.
Screening CC(C)NC(=O)N(C)C[C@H]1Oc2c(NC(=O)Nc3cccc4ccccc34)cccc2C(=O)N([C@H](C)CO)C[C@H]1C returned RAD54 inh inactive, MLL AF4-AF9 inh inactive, SIRT5 inh inactive, UUG fidelity inactive, RAD52 inh inactive and E-sel inducer inactive.
CCOc1ccc(S(=O)(=O)NN2Cc3ccccc3C2=N)cc1 was read as MLL AF4-AF9 inh inactive, SIRT5 inh 18 and RAD52 inh inactive.
CS(=O)(=O)N1CC(=O)N2[C@H](CO)[C@@H](c3ccc(Br)cc3)[C@@H]2C1 was read as MLL AF4-AF9 inh inactive, SIRT5 inh inactive, RAD52 inh inactive and E-sel inducer inactive.
For CCc1noc(C)c1C(=O)NNC(=O)COc1ccc(C)cc1 the results were MLL AF4-AF9 inh inactive, SIRT5 inh 15, RAD52 inh inactive and E-sel inducer inactive.
Screening C/C=C/c1ccc([C@@H]2[C@@H](CO)N3C(=O)CN(Cc4ccccc4)C[C@H]23)cc1 returned MLL AF4-AF9 inh inactive, SIRT5 inh inactive, RAD52 inh inactive and E-sel inducer inactive.
For CO[C@H]1CN(C)C(=O)c2ccc(NC(=O)CC(F)(F)F)cc2OC[C@H](C)NC[C@H]1C the results were MLL AF4-AF9 inh inactive, RAD52 inh inactive and E-sel inducer inactive.
